Data from patent publication US9783511B2, “Carbamate benzoxazine propionic acids and acid derivatives for modulation of RORgamma activity and the treatment of disease” (Merck Sharp & Dohme Corp., priority 2013, dated 2017).

Chains of the proteins cited; added tags and fusions are not shown. Residues count along the entry.
UniProt P51449, 269-508: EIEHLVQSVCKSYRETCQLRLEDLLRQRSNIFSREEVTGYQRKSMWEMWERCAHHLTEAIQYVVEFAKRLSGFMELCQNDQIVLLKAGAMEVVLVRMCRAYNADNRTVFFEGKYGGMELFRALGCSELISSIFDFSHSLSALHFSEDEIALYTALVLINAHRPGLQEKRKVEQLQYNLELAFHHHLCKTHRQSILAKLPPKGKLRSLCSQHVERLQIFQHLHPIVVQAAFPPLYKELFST

Target: human RORgammaT-Ligand Binding Domain (LBD) (Homo sapiens (Human), UniProt P51449)
Assay: RORγ-Ligand Binding Domain TR-FRET Assay (co-activator peptide SRC1_2 recruitment)
Type: biochemical
Settings: HIS-tagged RORγ-LBD 3 nM, biotinylated SRC1 LXXLL peptide 100 nM, incubated overnight at 4° C., 665 nm/615 nm ratio
Excerpt: Activation of RORgammaT activity can be measured using, e.g., a biochemical TR-FRET assay. In such an assay, interaction of cofactor-derived peptides with human RORgammaT-Ligand Binding Domain (LBD) can be measured.
To identify novel antagonists of RORgammaT, an assay was developed which employs the interaction of RORgammaT with its co-activator peptide SRC1_2. […] The RORγ-Ligand Binding Domain TR-FRET Assay was run according to the following protocol.
HIS-tagged RORγ-LBD protein was recombinantly expressed in Escherichia coli. The RORγ-LBD protein was purified by Ni^2+-affinity resin. Purified protein was then diluted in assay buffer (50 mM Tris pH 7.0, 50 mM KCl, 1 mM EDTA, 0.1 mM DTT, 100 μg/mL bovine serum albumin, delipidated) to obtain a RORγ-LBD final concentration of 3 nM.
Compounds to be tested were injected to the 384-well assay plate using Acoustic Droplet Ejection technology by Echo 550 liquid handler (Labcyte, CA).

| SMILES | IC50 |
| --- | --- |
| CCOC(=O)C(C)C[C@H]1CN(S(=O)(=O)c2ccc(F)c(Cl)c2)c2cc(NC(=O)OC(C)(C)C(F)(F)F)ccc2O1 (single isomer, unassigned) [Example 2A, (S or R)-ethyl 3-((S)-4-((3-chloro-4-fluorophenyl)sulfonyl)-6-((((1,1,1-trifluoro-2-methylpropan-2-yl)oxy)carbonyl)amino)-3,4-dihydro-2H-benzo[b][1,4]oxazin-2-yl)-2-methylpropanoate] | 7 nM |
| CC(C[C@H]1CN(S(=O)(=O)c2ccc(F)c(Cl)c2)c2cc(NC(=O)OC(C)(C)C(F)(F)F)ccc2O1)C(=O)O (single isomer, unassigned) [Example 5A, (S or R)-3-((S)-4-((3-chloro-4-fluorophenyl)sulfonyl)-6-((((1,1,1-trifluoro-2-methylpropan-2-yl)oxy)carbonyl)amino)-3,4-dihydro-2H-benzo[b][1,4]oxazin-2-yl)-2-methylpropanoic acid] | 7 nM |
| CC(C[C@H]1CN(S(=O)(=O)c2ccc(F)c(Cl)c2)c2cc(NC(=O)OC(C)(C)C(F)(F)F)ccc2O1)C(=O)O (single isomer, unassigned) [Example 5B, (R or S)-3-((S)-4-((3-chloro-4-fluorophenyl)sulfonyl)-6-((((1,1,1-trifluoro-2-methylpropan-2-yl)oxy)carbonyl)amino)-3,4-dihydro-2H-benzo[b][1,4]oxazin-2-yl)-2-methylpropanoic acid] | 8 nM |

More lines, now with the values ahead:

| IC50 | SMILES |
| --- | --- |
| 6 nM | CCOC(=O)C(C)C[C@H]1CN(S(=O)(=O)c2ccc(F)c(Cl)c2)c2cc(NC(=O)OC(C)(C)C(F)(F)F)ccc2O1 (single isomer, unassigned) [Example 2B, (R or S)-ethyl 3-((S)-4-((3-chloro-4-fluorophenyl)sulfonyl)-6-((((1,1,1-trifluoro-2-methylpropan-2-yl)oxy)carbonyl)amino)-3,4-dihydro-2H-benzo[b][1,4]oxazin-2-yl)-2-methylpropanoate] |
| 132 nM | CCn1cc(S(=O)(=O)N2C[C@H](C[C@H](C(=O)O)C3CC3)Oc3ccc(NC(=O)OC(C)(C)C(F)(F)F)cc32)c(OCCO)n1 (single isomer, unassigned) [Example 10Y, (S or R)-2-cyclopropyl-3-((S)-4-((1-ethyl-3-(2-hydroxyethoxy)-1H-pyrazol-4-yl)sulfonyl)-6-((((1,1,1-trifluoro-2-methylpropan-2-yl)oxy)carbonyl)amino)-3,4-dihydro-2H-benzo[b][1,4]oxazin-2-yl)propanoic acid] |
